Chains of the proteins cited; added tags and fusions are not shown. Residues count along the entry.
UniProt P10721, 26-976 D816V limits assumed: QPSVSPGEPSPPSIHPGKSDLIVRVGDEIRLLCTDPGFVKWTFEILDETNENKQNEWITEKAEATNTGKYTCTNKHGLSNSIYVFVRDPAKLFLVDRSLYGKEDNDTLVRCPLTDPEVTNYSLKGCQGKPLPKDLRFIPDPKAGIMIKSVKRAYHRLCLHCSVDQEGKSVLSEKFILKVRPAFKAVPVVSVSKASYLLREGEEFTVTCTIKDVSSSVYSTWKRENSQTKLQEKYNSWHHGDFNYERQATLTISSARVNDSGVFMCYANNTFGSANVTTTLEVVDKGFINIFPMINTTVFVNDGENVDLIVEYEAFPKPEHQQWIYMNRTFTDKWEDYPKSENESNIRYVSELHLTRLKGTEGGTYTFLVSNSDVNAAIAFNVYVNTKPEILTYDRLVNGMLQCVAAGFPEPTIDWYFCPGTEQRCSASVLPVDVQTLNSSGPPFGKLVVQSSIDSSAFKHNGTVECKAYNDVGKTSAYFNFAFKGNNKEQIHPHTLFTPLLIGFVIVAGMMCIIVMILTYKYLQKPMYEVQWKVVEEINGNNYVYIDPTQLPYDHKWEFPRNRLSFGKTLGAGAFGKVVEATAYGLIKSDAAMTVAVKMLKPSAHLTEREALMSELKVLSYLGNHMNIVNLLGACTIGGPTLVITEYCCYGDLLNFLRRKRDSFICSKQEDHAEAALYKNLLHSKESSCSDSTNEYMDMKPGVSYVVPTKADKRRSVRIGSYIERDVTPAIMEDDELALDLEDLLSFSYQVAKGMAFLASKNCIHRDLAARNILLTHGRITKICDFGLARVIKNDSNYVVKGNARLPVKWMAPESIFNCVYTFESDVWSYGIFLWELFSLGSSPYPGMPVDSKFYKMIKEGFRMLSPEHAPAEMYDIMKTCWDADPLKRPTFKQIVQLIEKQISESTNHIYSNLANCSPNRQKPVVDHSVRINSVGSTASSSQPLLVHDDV
UniProt P10721, 26-976 V560G/D816V limits assumed: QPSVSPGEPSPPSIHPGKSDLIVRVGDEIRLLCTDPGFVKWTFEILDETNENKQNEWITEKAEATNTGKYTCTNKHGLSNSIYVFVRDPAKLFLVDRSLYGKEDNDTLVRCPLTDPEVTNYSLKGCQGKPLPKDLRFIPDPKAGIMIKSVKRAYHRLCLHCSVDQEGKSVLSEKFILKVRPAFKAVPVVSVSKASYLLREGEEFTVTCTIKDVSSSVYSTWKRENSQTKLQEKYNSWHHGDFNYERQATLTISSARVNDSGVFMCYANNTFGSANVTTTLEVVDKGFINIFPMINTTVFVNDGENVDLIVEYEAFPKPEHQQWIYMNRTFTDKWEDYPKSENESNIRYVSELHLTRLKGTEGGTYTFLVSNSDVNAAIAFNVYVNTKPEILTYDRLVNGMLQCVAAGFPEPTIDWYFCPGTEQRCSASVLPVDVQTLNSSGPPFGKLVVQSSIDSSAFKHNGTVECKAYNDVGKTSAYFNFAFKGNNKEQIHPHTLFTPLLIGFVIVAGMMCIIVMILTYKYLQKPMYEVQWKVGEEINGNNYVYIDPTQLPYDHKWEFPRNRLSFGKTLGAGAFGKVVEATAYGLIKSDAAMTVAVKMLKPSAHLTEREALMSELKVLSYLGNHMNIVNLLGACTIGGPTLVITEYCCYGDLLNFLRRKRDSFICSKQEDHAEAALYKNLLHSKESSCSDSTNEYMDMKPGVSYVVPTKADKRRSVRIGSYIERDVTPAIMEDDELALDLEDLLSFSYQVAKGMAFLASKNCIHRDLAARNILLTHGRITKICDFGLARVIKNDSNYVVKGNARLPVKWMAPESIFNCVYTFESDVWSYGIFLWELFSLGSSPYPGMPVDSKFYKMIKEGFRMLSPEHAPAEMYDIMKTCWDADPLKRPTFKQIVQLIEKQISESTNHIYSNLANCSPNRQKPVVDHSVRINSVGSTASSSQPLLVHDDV
UniProt P16234, 24-1089 D842V limits assumed: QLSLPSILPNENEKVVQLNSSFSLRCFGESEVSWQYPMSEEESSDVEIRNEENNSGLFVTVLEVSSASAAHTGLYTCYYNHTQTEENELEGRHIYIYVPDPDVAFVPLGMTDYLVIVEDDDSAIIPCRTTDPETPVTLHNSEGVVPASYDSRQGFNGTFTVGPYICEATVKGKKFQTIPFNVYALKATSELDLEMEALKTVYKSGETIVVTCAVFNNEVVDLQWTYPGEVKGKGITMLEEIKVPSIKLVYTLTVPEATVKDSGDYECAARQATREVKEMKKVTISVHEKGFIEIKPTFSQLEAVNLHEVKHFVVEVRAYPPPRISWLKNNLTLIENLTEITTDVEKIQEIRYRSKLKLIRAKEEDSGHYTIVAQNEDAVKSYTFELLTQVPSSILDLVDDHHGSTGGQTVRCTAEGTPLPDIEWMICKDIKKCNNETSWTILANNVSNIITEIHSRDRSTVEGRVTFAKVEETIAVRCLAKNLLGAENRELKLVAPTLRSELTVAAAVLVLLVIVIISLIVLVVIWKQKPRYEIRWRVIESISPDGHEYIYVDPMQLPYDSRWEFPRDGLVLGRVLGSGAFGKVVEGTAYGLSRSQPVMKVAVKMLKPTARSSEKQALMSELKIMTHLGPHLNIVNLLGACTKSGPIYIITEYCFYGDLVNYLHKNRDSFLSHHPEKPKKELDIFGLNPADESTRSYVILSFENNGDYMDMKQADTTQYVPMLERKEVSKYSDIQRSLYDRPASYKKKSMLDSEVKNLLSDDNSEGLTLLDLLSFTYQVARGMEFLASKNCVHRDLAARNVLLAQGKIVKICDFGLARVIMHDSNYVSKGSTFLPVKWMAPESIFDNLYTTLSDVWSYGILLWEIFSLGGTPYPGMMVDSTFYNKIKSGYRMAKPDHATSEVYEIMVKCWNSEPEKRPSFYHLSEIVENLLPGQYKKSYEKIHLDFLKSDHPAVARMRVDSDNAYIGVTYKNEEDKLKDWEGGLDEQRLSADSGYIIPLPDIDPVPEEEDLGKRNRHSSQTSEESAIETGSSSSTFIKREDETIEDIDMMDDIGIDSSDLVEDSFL

According to patent US10807985B2 (Blueprint Medicines Corporation, priority 2013, dated 2020):

How the values were obtained:
[1] = target: D816V KIT (Homo sapiens (Human), UniProt P10721, D816V); assay: KIT D816V assay at Km (Caliper electrophoretic mobility shift); conditions: read-out: INH KIT D816V; biochemical, 15 uM ATP (Km), 90 minutes at 25 C
[2] = target: PDGFRA D842V (Homo sapiens (Human), UniProt P16234, D842V); assay: PDGFRA D842V assay at Km (Caliper electrophoretic mobility shift); conditions: read-out: INH PDFGRA D842V; biochemical, 15 uM ATP (Km), 90 minutes at 25 C
[3] = target: KIT D816V kinase activity (KIT autophosphorylation at tyrosine 719) in HMC1.2 cells (Homo sapiens (Human), UniProt P10721, D816V/V560G); assay: HMC1.2 autophosphorylation assay (phospho-Y719 c-KIT AlphaLISA); format: cell-based; conditions: read-out: INH-KIT-PHOS-HMC1.2; HMC1.2 mast cell leukemia cell line (KIT V560G, D816V), 90 minutes compound

SMILES	IC50 [1]	IC50 [2]	IC50 [3]
C[C@](O)(c1ccc(F)cc1)c1cnc(N2CCN(c3ncnn4cc(-c5cnn(C6COC6)c5)cc34)CC2)nc1	< 1 nM	< 1 nM	< 50 nM
Cn1cc(-c2cc3c(N4CCN(c5ncc([C@](C)(O)c6ccc(F)cc6F)cn5)CC4)ncnn3c2)cn1	1.01 to 10 nM	< 1 nM	< 50 nM
C[C@](O)(c1ccc(F)cc1)c1cnc(N2CCN(c3ncnn4cc(-c5ccc(C6CC6)cc5)cc34)CC2)nc1	10 to 100 nM		100 to 1000 nM
